Values quoted from earlier work as cited in patent publication US7198946B2, “Screening for agents effective in decreasing abnormal macrophages associated with amyotrophic lateral sclerosis” (Pathologica, LLC, priority 2001, dated 2007).

Tested on: patients with ALS
Details: Bensimon et al. 1994; Lacomblez et al. 1996; cited from earlier work

Nc1nc2ccc(OC(F)(F)F)cc2s1 [riluzole]
survival of patients with ALS: statistically significant effects on survival
